Laboratory results published in ChEMBL document CHEMBL2311356, “The effect of 17-N substituents on the activity of the opioid κ receptor in nalfurafine derivatives” (Bioorg Med Chem Lett, 2013).

What was measured:
[1] = Selectivity ratio of Ki for delta opioid receptor in mouse whole brain membranes without cerebellum to Ki for kappa opioid receptor in guinea pig cerebellum; assay type: cell membranes
[2] = Selectivity ratio of Ki for mu opioid receptor in mouse whole brain membranes without cerebellum to Ki for kappa opioid receptor in guinea pig cerebellum; assay type: cell membranes

CN(C(=O)Cc1ccccc1)[C@H]1CC[C@@]2(CCCO2)C[C@@H]1N1CCCC1
Ratio Ki [1]: 285 | Ratio Ki [2]: 400
